This note sets out measurements from patent publication US7608626B2, “Substituted indolizines and derivatives as CNS agents” (Wyeth, priority 2004, dated 2009).

Protein sequences, listed by entry. Tags and fused reporters are not part of them. Residues count along the entry.
UniProt P28335, 33-458: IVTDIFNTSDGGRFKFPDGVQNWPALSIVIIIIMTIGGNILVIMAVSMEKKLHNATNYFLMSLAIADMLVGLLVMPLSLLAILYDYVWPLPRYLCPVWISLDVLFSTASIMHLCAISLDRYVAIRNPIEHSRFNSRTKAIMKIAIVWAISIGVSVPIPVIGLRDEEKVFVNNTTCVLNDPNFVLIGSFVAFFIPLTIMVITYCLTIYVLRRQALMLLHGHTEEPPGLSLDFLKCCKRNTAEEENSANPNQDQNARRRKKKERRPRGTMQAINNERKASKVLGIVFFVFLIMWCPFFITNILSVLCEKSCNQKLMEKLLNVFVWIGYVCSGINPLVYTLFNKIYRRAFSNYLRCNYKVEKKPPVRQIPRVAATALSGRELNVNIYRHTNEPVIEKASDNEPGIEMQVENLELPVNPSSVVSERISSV

The target of experiment [1] is T1, human 5-hydroxytryptamine-2C (h-5-HT2C) receptor (Homo sapiens, UniProt P28335).
T1 construct: expressed in transfected cells; host or cells: Chinese Hamster Ovary (CHO) cells; membrane preparation
Description: [125I]DOI binding to membranes of CHO cells expressing h-5-HT2C receptor. The following applies: reference compounds; [125I]DOI radioligand, CHO cell membranes; read-out: Ki (95% confidence interval).

Another experiment concerns the target T2, human 5-HT2C receptor (Homo sapiens, UniProt P28335).
T2 construct: expressed in transfected cells
Briefly: 5-HT2C receptor-stimulated calcium mobilization (FLIPR) in CHO cells. Format: cell-based. The note with it: reference compounds. On the technique in general: Calcium flux is commonly read through the fluorescence of an indicator in the cells.

A word on the Ki: it is the equilibrium dissociation constant of an inhibitor or competing ligand from its target. The term EC50 denotes the concentration giving half of the maximal effect. As to `Clc1cccc(N2CCNCC2)c1` [mCPP, meta-chlorophenylpiperazine, reference compound], the Ki in experiment [1] was 6.5 nM. Further, at human 5-HT2C receptor, the EC50 is 5.4 nM.
